{"source": "patent US20050032724A1", "about": "(priority 2001, published 2005)", "system": "KB 3-1 (MDR1^+++, CYP3A5) cells", "conditions": "3 days", "description": "The human epithelial cervical cancer cell line KB 3-1 with two subclones (KB 3-1 (MDR1^+++) and KB 3-1 (MDR1^+++, CYP3A5)) and the bladder cancer cell line RT112, also with subclone (RT112 (MDR1^+, UGT1A1)), were cultured in Dulbecco's Modified Eagle Medium (DMEM) including 3.7 g/l NaHCO3, 4.5 g/l D-Glucose, 1.028 g/l N-Acetyl-L-Alanyl-L-glutamine and supplemented with 10% fetal bovine, 1 mM Na-pyruvate and 1% non-essential amino acids. The human colon cancer cell line LS174T was cultured in Dulbecco's modified Eagle medium containing L-glutamine, pyridoxine hydrochloride and 25 mM Hepes buffer without phenol red, supplemented with 10% fetal bovine, 1 mM Na-pyruvate and 1% non-essential amino acids. All cells were incubated at 37° C. with 5% CO2 in a humidified atmosphere.\nLower concentrated dilutions were prepared in PBS and cell culture medium.\nCells were seeded in 96-well culture plates 24 h prior to treatment. […]\nA commercially available MTS assay system (Promega, Madison, USA) was used to determine growth inhibition and cell death according to the instructions of the manufacturer. […] The plate was incubated for at least 45 min at 37° C. in a humidified 5% CO2 atmosphere and the absorbance at 492 nm was measured. The absorbance values of untreated control cells on each plate were set as 100% growth and used to calculate the remaining growth of drug treated cells. […]", "data": [{"substance": "irinotecan [CPT-11]", "values": [{"measurement": "IC50 with R-Verapamil", "setting": "with R-Verapamil 10 μg/ml", "result": 25, "unit": "µg/mL"}, {"measurement": "IC50 (50% inhibition of cell growth)", "setting": "without R-Verapamil", "result": 200, "unit": "µg/mL"}]}]}
